# Experimental data from ChEMBL document CHEMBL1821686, “Structure-based optimization of potent 4- and 6-azaindole-3-carboxamides as renin inhibitors” (Bioorg Med Chem Lett, 2011).
# By UniProt entry, the sequences of proteins in these tests, tags left out. Where a name states a change or a piece, a line headed by the entry shows the natural chain unless it says otherwise.
# UniProt P00797: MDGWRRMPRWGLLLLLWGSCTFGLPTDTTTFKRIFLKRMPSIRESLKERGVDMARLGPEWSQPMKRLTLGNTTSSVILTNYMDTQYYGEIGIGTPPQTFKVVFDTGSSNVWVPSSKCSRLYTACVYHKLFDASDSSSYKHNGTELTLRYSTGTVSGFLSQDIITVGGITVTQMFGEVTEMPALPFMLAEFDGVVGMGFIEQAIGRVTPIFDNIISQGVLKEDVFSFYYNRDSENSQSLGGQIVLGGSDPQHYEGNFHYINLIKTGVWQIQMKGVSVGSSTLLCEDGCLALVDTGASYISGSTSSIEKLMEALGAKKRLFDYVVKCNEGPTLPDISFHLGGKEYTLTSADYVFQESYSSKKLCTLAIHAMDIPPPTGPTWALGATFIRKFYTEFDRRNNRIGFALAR
# Molecular target: Renin (Homo sapiens, UniProt P00797)
smiles,measurement,value
Cc1ccc(F)cc1Oc1c(C(=O)N2CCNCC2)c2ccnc(Cc3ccccc3)c2n1-c1ccccc1,IC50,3 nM
